Experimental data: patent publication US20180051317A1, “NON-RADIOACTIVE METHOD FOR DETERMINING THE CYTOLITIC ACTIVITY OF AN AGENT WITH RESPECT TO TARGET CELLS, USE THEREOF AND ASSOCIATED KIT” (CLEAN CELLS, priority 2015, published 2018)

What was measured:
SKOV3 target cells [1] = assay: anti-HER2 ADCC assay, 51Cr release method; assay type: cell-based
Description: The nanoluciferase method was compared to the ^51Cr method in an anti-HER2 ADCC assay. For this, SKOV3 cells stably expressing nanoluciferase were or were not labeled with ^51Cr and were used simultaneously in an ADCC assay under the same experimental conditions, according to the same principle as that described in example 4.
SKOV3 target cells transformed to stably express nanoluciferase were incubated or not incubated for 1 hour in a saline solution of Na2CrO4 (Perkin Elmer, France), equivalent to 100 μCi of ^51Cr per million cells, then washed 4 times with RPMI-1640, 10% FCS and counted.
At the end of the 4-hour incubation, 25 μl of supernatant of each condition are recovered, the cytolysis is measured and the percentage of specific lysis is calculated according to modes strictly identical to those described in example 4.
The mean percentages of specific lysis obtained by the two methods in the three experiments and also the associated modelings are shown in FIG. 17. Here again, the two methods give very similar results, with a dispersion of the values which seems to be less for the nanoluciferase method.

SKOV3 target cells [2] = assay: anti-HER2 ADCC assay, nanoluciferase release method; assay type: cell-based
[3] = mean±SD, 4 h, CD16 T lymphocyte effectors
[4] = standard range, mean±SD of 3 experiments

mean EC50 (SKOV3 target cells [1]; [4]): 0.4025 ± 0.1725 µg/mL
mean EC50 (SKOV3 target cells [2]; [4]): 0.1816 ± 0.008 µg/mL
Substance: trastuzumab
mean potency (SKOV3 target cells [1]; 80% range, mean±SD): 82.9±13.0%
mean potency (SKOV3 target cells [1]; 125% range, mean±SD): 154.2±24.8%
Emax (SKOV3 target cells [1]; [3]): 41.3±4.3%
Emin (SKOV3 target cells [1]; [3]): 0.5±2.2%
mean potency (SKOV3 target cells [2]; 80% range, mean±SD): 69.3±7.9%
mean potency (SKOV3 target cells [2]; 125% range, mean±SD): 136.9±19.4%
Emax (SKOV3 target cells [2]; [3]): 34.1±4.3%
